Source: patent US6989377B2, “Treating vitamin D responsive diseases” (priority 1999, dated 2006)

Test system: B6×129-IL-10−/− mice
Settings: 50 ng/d for females; 100 ng/d for males from age 7 weeks; loss after age 14 weeks

C=C1/C(=C\C=C2/CCC[C@]3(C)[C@@H]([C@H](C)CCCC(C)(C)O)CC[C@@H]23)C[C@@H](O)C[C@@H]1O [Calcitriol, 1,25 dihydroxyvitamin D3]
Weight lost: about 15%
